Source: ChEMBL document CHEMBL1129572, “Synthesis and pharmacological properties of novel 8-substituted imidazobenzodiazepines: high-affinity, selective probes for alpha 5-containing GABAA receptors” (J Med Chem, 1996)

By UniProt entry, the sequences of proteins in these tests, tags left out.
UniProt Q16445, whole entry: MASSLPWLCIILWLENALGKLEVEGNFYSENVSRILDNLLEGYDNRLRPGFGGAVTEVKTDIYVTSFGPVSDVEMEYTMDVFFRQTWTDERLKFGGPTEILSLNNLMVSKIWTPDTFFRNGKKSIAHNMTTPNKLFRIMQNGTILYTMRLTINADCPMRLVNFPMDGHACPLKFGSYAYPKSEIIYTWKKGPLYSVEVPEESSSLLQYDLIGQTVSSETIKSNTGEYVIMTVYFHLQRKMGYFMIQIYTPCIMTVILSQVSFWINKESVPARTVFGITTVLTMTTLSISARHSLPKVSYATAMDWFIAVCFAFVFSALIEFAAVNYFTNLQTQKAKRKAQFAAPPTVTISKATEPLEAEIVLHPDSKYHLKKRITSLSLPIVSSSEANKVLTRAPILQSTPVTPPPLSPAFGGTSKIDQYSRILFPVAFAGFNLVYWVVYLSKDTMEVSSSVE

Columns and labels:
[1] = molecular target: GABA A receptor alpha-6/beta-2/gamma-2 (Homo sapiens, UniProt P18507+P47870+Q16445); assay: Binding affinity for human GABA-A receptor alpha-6-beta-2-gamma-2 expressed in L(tk-) cell membranes
Method in brief: (§1)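 Competition binding on membranes of Ltk cells expressing human αxβ2γ2 receptors. Radioligand was [3H]Ro 15-1788, or [3H]Ro 15-4513 for α6β2γ2. Ki is the mean of two determinations differing by less than 10%.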

[2] = molecular target: T1, GABA A receptor alpha-2/beta-2/gamma-2 (Homo sapiens, UniProt P18507+P47869+P47870); assay: Binding affinity for human GABA-A receptor alpha-2-beta-2-gamma-2 expressed in L(tk-) cell membranes; method in brief: as §1
T1 sequence (P47870 whole entry): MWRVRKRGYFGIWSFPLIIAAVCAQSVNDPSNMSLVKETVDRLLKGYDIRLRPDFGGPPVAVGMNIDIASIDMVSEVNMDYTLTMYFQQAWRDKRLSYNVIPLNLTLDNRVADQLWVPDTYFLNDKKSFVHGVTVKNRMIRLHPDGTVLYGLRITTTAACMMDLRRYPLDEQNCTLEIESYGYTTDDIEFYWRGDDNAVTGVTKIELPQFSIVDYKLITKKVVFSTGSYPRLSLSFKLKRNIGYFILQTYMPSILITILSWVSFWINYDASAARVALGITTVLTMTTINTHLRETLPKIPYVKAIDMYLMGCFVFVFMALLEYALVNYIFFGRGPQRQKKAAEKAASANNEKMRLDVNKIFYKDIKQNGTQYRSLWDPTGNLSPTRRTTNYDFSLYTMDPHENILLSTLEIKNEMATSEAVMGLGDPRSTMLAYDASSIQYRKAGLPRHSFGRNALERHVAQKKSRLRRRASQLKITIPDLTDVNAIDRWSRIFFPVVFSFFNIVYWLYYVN
T1 sequence (P18507 whole entry): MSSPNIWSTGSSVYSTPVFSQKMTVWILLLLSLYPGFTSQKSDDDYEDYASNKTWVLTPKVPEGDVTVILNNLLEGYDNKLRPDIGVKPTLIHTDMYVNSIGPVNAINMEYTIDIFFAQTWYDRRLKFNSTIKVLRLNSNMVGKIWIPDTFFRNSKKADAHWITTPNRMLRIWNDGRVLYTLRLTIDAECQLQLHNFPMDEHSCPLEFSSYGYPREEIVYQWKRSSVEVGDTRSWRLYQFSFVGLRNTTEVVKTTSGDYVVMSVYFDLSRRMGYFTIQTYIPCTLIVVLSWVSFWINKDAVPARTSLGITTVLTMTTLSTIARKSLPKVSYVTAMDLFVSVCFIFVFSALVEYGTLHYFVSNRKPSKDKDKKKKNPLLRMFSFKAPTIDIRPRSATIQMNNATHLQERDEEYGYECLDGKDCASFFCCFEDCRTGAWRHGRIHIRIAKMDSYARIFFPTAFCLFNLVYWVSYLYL
T1 sequence (P47869 whole entry): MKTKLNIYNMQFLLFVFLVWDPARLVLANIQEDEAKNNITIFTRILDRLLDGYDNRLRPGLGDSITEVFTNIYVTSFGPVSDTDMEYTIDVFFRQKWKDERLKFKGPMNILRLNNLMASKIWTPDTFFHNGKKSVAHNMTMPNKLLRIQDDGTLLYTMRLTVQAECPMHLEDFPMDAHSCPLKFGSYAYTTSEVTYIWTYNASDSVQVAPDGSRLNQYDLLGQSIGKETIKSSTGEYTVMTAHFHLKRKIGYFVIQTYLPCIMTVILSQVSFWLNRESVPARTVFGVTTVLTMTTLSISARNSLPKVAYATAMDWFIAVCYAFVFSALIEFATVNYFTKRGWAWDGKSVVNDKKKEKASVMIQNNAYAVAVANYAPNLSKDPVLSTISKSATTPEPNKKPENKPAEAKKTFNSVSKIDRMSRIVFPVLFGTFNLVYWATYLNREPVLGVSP

[3] = molecular target: T2, GABA A receptor alpha-3/beta-2/gamma-2 (Homo sapiens, UniProt P18507+P34903+P47870); assay: Binding affinity for human GABA-A receptor alpha-3-beta-2-gamma-2 expressed in L(tk-) cell membranes; method in brief: as §1
T2 sequence (P47870 whole entry): T1 sequence (P47870 whole entry)
T2 sequence (P18507 whole entry): T1 sequence (P18507 whole entry)
T2 sequence (P34903 whole entry): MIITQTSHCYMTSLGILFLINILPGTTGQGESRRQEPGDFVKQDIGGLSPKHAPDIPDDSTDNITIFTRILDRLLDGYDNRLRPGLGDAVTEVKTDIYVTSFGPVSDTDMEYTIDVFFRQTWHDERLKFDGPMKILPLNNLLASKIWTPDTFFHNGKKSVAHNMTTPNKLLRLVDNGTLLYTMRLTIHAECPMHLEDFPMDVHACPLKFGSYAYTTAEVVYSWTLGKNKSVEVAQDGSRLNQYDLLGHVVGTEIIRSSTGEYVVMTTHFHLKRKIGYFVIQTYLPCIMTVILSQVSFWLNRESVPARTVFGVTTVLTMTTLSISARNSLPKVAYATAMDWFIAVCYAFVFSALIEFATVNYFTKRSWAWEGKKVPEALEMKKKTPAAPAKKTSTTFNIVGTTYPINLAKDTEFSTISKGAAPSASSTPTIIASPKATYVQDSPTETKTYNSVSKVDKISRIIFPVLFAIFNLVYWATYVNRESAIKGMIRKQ

[4] = molecular target: T3, GABA-A receptor; alpha-1/beta-2/gamma-2 (Homo sapiens, UniProt P14867+P18507+P47870); assay: Binding affinity for human GABA-A receptor alpha-1-beta-2-gamma-2 expressed in L(tk-) cell membranes; method in brief: as §1
T3 sequence (P14867 whole entry): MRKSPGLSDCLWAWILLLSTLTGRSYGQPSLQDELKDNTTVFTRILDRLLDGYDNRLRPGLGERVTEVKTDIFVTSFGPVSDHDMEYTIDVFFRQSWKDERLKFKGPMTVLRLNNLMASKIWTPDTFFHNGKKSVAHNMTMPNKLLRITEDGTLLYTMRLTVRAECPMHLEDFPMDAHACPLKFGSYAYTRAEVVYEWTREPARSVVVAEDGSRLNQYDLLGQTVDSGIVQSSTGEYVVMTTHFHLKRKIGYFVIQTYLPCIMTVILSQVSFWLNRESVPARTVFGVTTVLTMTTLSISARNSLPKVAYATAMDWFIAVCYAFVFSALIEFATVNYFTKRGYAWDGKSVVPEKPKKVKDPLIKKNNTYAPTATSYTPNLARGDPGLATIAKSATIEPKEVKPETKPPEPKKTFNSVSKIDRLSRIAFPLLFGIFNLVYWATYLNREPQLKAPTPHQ
T3 sequence (P47870 whole entry): T1 sequence (P47870 whole entry)
T3 sequence (P18507 whole entry): T1 sequence (P18507 whole entry)

CCOC(=O)c1ncn2c1CN(C)C(=O)c1cc(N=[N+]=[N-])ccc1-2 [Ro-154513]
Ki [1]: 3.8 nM | Ki [2]: 2.6 nM | Ki [3]: 2.5 nM | Ki [4]: 3.3 nM
